From PubChem BioAssay AID485314 (National Center for Advancing Translational Sciences (NCATS), 2010) come the findings set out here.

Only a part is listed here, and it is no random draw. Results filed as inconclusive are left out. Calls of active or inactive are those of the source. The call rests on the fitted dose curve; in most records, active means well fitted inhibition curve with a large enough effect; inconclusive means small, poorly fitted or top-dose-only effect, or another doubt; inactive means no such curve, though single readings can be large or run the other way.
On the % scale 0 is the no-effect control and ±100 the full control effect; potency means the concentration at half of the fitted maximal effect.

The assay deals with DNA polymerase beta (Homo sapiens) (UniProt P06746). Description: qHTS Assay for Inhibitors of DNA Polymerase Beta. The conditions noted are these: Pol beta primer extension/strand displacement, fluorescence kinetic; series mostly up to 114 µM; activity change, negative = inhibition: at the top concentration. From the text: The base excision repair system in human cells is a target for therapeutic modulation of the response to irradiation treatment and DNA-damaging drugs. A key enzyme in this system is the bi-functional DNA polymerase known as DNA polymerase Beta (Pol Beta). The following is a homogeneous kinetic assay to study the primer extension and strand-displacement reaction catalyzed by pol beta.
A stepwise description of the 1536-well assay is shown in next Table. Three microliters of reagents (buffer in column 3 and 4 as negative control and 10 nM Pol beta in columns 1, 2, and 5-48) was dispensed into 1,536-well black solid-bottomed plate. Compounds (23 nL) were transferred via Kalypsys pin tool equipped with 1536-pin array (10 nL slotted pins, V&P Scientific, San Diego, CA). The plates were incubated for 15 min at room temperature, and 1 uL substrate (50 nM final concentration) were added to start the reaction and immediately read at 0 min read on Viewlux reader. The plate were further incubated for 10 min at room temperature, and then read on Viewlux again. Throughout the screen, reagent bottle and all liquid lines were chilled and made light-tight to minimize reagent degradation. All screening operations were performed on a fully integrated robotic system (Kalypsys, San Diego, CA) containing one RX-130 and two RX-90 anthropomorphic robotic arms (Staubli, Duncan, SC). Library plates were screened starting from the lowest and proceeding to the highest concentration, and a double-dipping step of the highest concentration was required to access higher concentrations of compounds. Vehicle-only plates, with DMSO being pin-transferred to the entire column 5-48 compound area, were inserted uniformly at the beginning and the end of each library in order to monitor for and record any shifts in the background, which can be affected by reagent dispensers or loss in enzyme activity overtime. Screening data were corrected, normalized, and concentration-effect relationships were derived by using publicly-available curve fitting algorithms developed in-house (http://ncgc.nih.gov/pub/openhts). A four parameter Hill equation was fitted to the concentration-response data by minimizing the residual error between the modeled and observed responses.
On the technique in general: Quantitative high-throughput screening tests each substance at several concentrations.
`COc1ccc(OP(C)(=O)Nc2cccc(F)c2)cc1` (configuration not stated): the “activity change, negative = inhibition” value is inactive: -0.482%. The same measure, in the same setting: the figure for `COc1ccccc1OP(C)(=O)Nc1cc(Cl)ccc1C` (configuration not stated) is inactive: 1.08%; for `Cc1cc(C)cc(OP(C)(N)=O)c1` (configuration not stated) it is inactive: 1.64%. On the same count and under the same terms, the figure for `CCOC(=O)c1ccc(NP(C)(=O)Oc2ccccc2)cc1` (configuration not stated) is inactive: 21.9%. With `Cc1ccc(NP(C)(=O)Oc2ccccc2)c(C)c1` (configuration not stated), the “activity change, negative = inhibition” value is inactive: -0.222%. Regarding `COc1ccccc1OP(C)(=O)Nc1ccc(C)cc1` (configuration not stated), the “activity change, negative = inhibition” value is inactive: 30.2%. As for `Cc1cccc(C)c1OP(C)(N)=O` (configuration not stated), the “activity change, negative = inhibition” value is inactive: 15.8%. Regarding `O=[N+]([O-])c1ccc2c(c1)C=Nc1ccccc1O2`, the “activity change, negative = inhibition” value was inactive: 22%. Take `CCN(CC)CCCOC(=O)C(O)(c1ccccc1)c1ccccc1`: the “activity change, negative = inhibition” value was inactive: 17.4%.

For the compound `CP(=O)(Nc1ccccn1)Oc1ccc(Cl)cc1` (configuration not stated), the “activity change, negative = inhibition” value was inactive: 7.69%. `CCOP(C)(=S)SCC(=O)NC(C)C(=O)O` (configuration not stated): the “activity change, negative = inhibition” value was inactive: 12.3%. Still for that read-out and setting: the same measure for `CCOC(=O)c1ccc(NP(C)(=O)Oc2ccc(OC)cc2)cc1` (configuration not stated): inactive: 26%. `Cc1cc(C)cc(OP(C)(=O)Nc2ccc(SC(F)(F)F)cc2)c1` (configuration not stated): the “activity change, negative = inhibition” value was inactive: -0.0679%. Consider `CCc1ccc(OP(C)(=O)N2CCN(c3ccc([N+](=O)[O-])cc3)CC2)cc1` (configuration not stated), for which the “activity change, negative = inhibition” value is inactive: -23.4%. For `CP(=O)(NC(=O)Nc1ccccc1)Oc1ccccc1` (configuration not stated), the “activity change, negative = inhibition” value was inactive: 1.28%. Take `CP(=O)(Oc1ccccc1)OC(c1ccccc1)C(F)(F)F` (configuration not stated): the “activity change, negative = inhibition” value was inactive: 29.7%.

Regarding `CP(=O)(Nc1ccc(SC(F)(F)F)cc1)Oc1ccc(Cl)cc1` (configuration not stated), the “activity change, negative = inhibition” value is inactive: -28%. On the same count and under the same terms, the same measure for `Cc1cccc(C)c1OP(C)(=O)Nc1ccc(SC(F)(F)F)cc1` (configuration not stated): inactive: -11.2%; for `COc1ccccc1OP(C)(=O)Nc1ccccc1` (configuration not stated): inactive: 2.13%; for `CP(=O)(Nc1ccccc1Br)Oc1ccccc1` (configuration not stated): inactive: 28.3%.

`CP(=S)(Nn1cnnc1)Oc1ccccc1` (configuration not stated): the “activity change, negative = inhibition” value is inactive: -0.639%. `CP(=O)(Nc1ccc(SC(F)(F)F)cc1)Oc1ccccc1` (configuration not stated): the “activity change, negative = inhibition” value is inactive: -1.21%. `CCCOc1ccc(NP(C)(=O)Oc2ccc(Cl)cc2)cc1` (configuration not stated): the “activity change, negative = inhibition” value was inactive: 0.649%. Regarding `CN1CCCCC1COC(=O)C1(O)c2ccccc2CCc2ccccc21` (configuration not stated), the “activity change, negative = inhibition” value is inactive: 40.8%. On to `COc1ccccc1OP(C)(=O)Nc1c(C)cccc1C` (configuration not stated), for which the “activity change, negative = inhibition” value was inactive: 87.8%. On to `O=[N+]([O-])c1cc([N+](=O)[O-])c(Nc2nnnn2CCO)c([N+](=O)[O-])c1`, for which the “activity change, negative = inhibition” value was inactive: 14.6%. On to `Cc1nc2ccc3ccccc3c2s1.O=[N+]([O-])c1cc([N+](=O)[O-])c(O)c([N+](=O)[O-])c1`, for which the “activity change, negative = inhibition” value is inactive: 37.1%. Take `O=[N+]([O-])c1cc([N+](=O)[O-])c(-n2nnc3ccccc32)c([N+](=O)[O-])c1`: the “activity change, negative = inhibition” value was inactive: -0.884%. Turning to `CP(=O)(Nc1cccc(Br)c1)Oc1ccccc1` (configuration not stated), the “activity change, negative = inhibition” value was inactive: 24.9%. On the same count and under the same terms, the same measure for `Cc1cc(C)cc(OP(C)(=O)Nc2ccccn2)c1` (configuration not stated): inactive: -1.63%; for `Cc1ccc(C)c(NP(C)(=O)Oc2ccccc2)c1` (configuration not stated): inactive: 9.93%; for `Cc1cc(C)cc(OP(C)(=O)Nc2ccc(C)cc2C)c1` (configuration not stated): inactive: 31.3%. Turning to `CCOC(=O)c1ccc(NP(C)(=O)Oc2cc(C)cc(C)c2)cc1` (configuration not stated), the “activity change, negative = inhibition” value was inactive: 19.8%. Still for that read-out and setting: the same measure for `COc1ccccc1OP(C)(=O)Nc1cccc(Br)c1` (configuration not stated): inactive: -17.9%; for `CC1=NCCc2c1[nH]c1ccccc21.O=[N+]([O-])c1cc([N+](=O)[O-])c(O)c([N+](=O)[O-])c1`: inactive: -0.598%; for `CCCCCOc1ccc(NP(C)(=O)Oc2ccc(Cl)cc2Cl)cc1` (configuration not stated): inactive: -16.8%. As for `CP(=O)(Nc1ccccc1)Oc1ccc(F)cc1` (configuration not stated), the “activity change, negative = inhibition” value was inactive: 5.55%. On to `CCN(CC)CCCOC(=O)C(O)(c1ccccc1)C1CCCCC1` (configuration not stated), for which the “activity change, negative = inhibition” value is inactive: 16%.

`COc1ccc(OP(C)(=O)Nc2ccc(SC(F)(F)F)cc2)cc1` (configuration not stated): the “activity change, negative = inhibition” value is inactive: 0.996%. `CCOC(=O)c1ccc(NP(C)(=O)Oc2ccc(F)cc2)cc1` (configuration not stated): the “activity change, negative = inhibition” value was inactive: 5.58%. For the compound `O=C(OCCN1CCN(CCOCc2ccccc2)CC1)C(O)(c1ccccc1)c1ccccc1`, the “activity change, negative = inhibition” value was inactive: -11.5%.

Turning to `CP(=O)(Nc1ccccc1F)Oc1ccccc1` (configuration not stated), the “activity change, negative = inhibition” value was inactive: 20.6%.

With `Cc1ccccc1NP(C)(=O)Nc1ccccc1C`, the “activity change, negative = inhibition” value is inactive: -12.7%. The same measure, in the same setting: the figure for `CP(=O)(Nc1ccc2c(c1)OCCO2)Oc1ccccc1` (configuration not stated) is inactive: 0.671%; for `CCOP(C)(=S)SCC(=O)NC(C)(CC)C(=O)O` (configuration not stated) it is inactive: 3.14%. For `CP(=O)(Nc1ccc(SC(F)(F)F)cc1)Oc1ccc(F)cc1` (configuration not stated), the “activity change, negative = inhibition” value is inactive: -16.1%.

Consider `Cc1cc(-c2cccc3ccccc23)c(C)cn1.O=[N+]([O-])c1cc([N+](=O)[O-])c(O)c([N+](=O)[O-])c1`, for which the “activity change, negative = inhibition” value was inactive: 23.5%. Still for that read-out and setting: the same measure for `O=[N+]([O-])c1ccc(OP2(=O)COCCO2)cc1` (configuration not stated): inactive: -1.17%; for `COc1ccc(NP(C)(=O)Oc2ccccc2OC)cc1` (configuration not stated): inactive: 28.4%; for `COc1ccc(OP(C)(=O)Nc2cccc(Br)c2)cc1` (configuration not stated): inactive: 20.6%. Still for that read-out and setting: the same measure for `CP(=O)(OC12CC3CC(CC(C3)C1)C2)OC12CC3CC(CC(C3)C1)C2`: inactive: 2.43%.

Turning to `CCOC(=O)c1ccc(NP(C)(=O)Oc2ccc(Cl)cc2)cc1` (configuration not stated), the “activity change, negative = inhibition” value was inactive: 7.98%.

Take `CN(C)C(=O)c1c([N+](=O)[O-])cc([N+](=O)[O-])cc1[N+](=O)[O-]`: the “activity change, negative = inhibition” value is inactive: 8.81%.

As to `CP(=O)(Nc1ccc(Cl)cc1)Oc1ccc(F)cc1` (configuration not stated), the “activity change, negative = inhibition” value is inactive: 3.02%. On to `CC(C)(C)c1ccc(OP(C)(=O)O)cc1`, for which the “activity change, negative = inhibition” value was inactive: 5.45%. With `COc1ccccc1OP(C)(=O)Nc1ccccc1Br` (configuration not stated), the “activity change, negative = inhibition” value was inactive: 10.3%. On to `CCc1ccc(OP(C)(=O)Nc2cccnc2)cc1` (configuration not stated), for which the “activity change, negative = inhibition” value was inactive: 36.2%. As to `CP(=O)(Oc1ccccc1)N1CCOC1=O` (configuration not stated), the “activity change, negative = inhibition” value is inactive: -0.638%. In the case of `O=C(OCCCN1CCCC1)C(O)(c1ccccc1)C1CCCCC1` (configuration not stated), the “activity change, negative = inhibition” value is inactive: 18.5%. For the compound `COc1ccccc1OP(C)(=O)Nc1c(C)n(C)n(-c2ccccc2)c1=O` (configuration not stated), the “activity change, negative = inhibition” value is inactive: -7.82%. `N#[O+].[C-]#N.[C-]#N.[C-]#N.[C-]#N.[C-]#N.[Fe+2].[Na+].[Na+]`: the Potency is active: 11.2 µM.

For the compound `COc1ccc(OP(C)(=O)Nc2ccc(Br)cc2)cc1` (configuration not stated), the “activity change, negative = inhibition” value was inactive: 30.3%. Take `CCN(CC)CC(O)COC(=O)C(O)(c1ccccc1)C1CCCCC1` (configuration not stated): the “activity change, negative = inhibition” value was inactive: 25.9%.

Regarding `CCc1ccc(OP(C)(=O)O)cc1`, the “activity change, negative = inhibition” value is inactive: 67%. On the same count and under the same terms, the same measure for `COc1ccccc1OP(C)(=O)Nc1ccc(C)cc1C` (configuration not stated): inactive: 19.2%; for `CP(=O)(Nc1ccccn1)Oc1ccccc1` (configuration not stated): inactive: 15.8%. For `O=[N+]([O-])c1cc([N+](=O)[O-])c(Nc2ccccn2)c([N+](=O)[O-])c1`, the “activity change, negative = inhibition” value was inactive: -18.5%. Consider `Cc1c(NP(C)(=O)Oc2ccc(C(C)C)cc2)c(=O)n(-c2ccccc2)n1C` (configuration not stated), for which the “activity change, negative = inhibition” value is inactive: -6.21%.

For `CN(C)CCOC(=O)C(O)(c1ccccc1)C1CCCC1` (configuration not stated), the “activity change, negative = inhibition” value was inactive: 43.1%. Still for that read-out and setting: the same measure for `COc1ccc(OP(C)(=O)Nc2ccccn2)cc1` (configuration not stated): inactive: 2.98%; for `COc1ccccc1OP(C)(=O)Nc1ccc(Br)cc1` (configuration not stated): inactive: -3.47%; for `CP(=O)(OCCOc1ccccc1)OCCOc1ccccc1`: inactive: 9.41%. The same measure, in the same setting: the figure for `CP(=O)(Nc1ccc(Cl)cc1Cl)Oc1ccccc1` (configuration not stated) is inactive: 3.41%; for `Cc1nc2ccc3ccccc3c2o1.O=[N+]([O-])c1cc([N+](=O)[O-])c(O)c([N+](=O)[O-])c1` it is inactive: 5.61%. Still for that read-out and setting: the figure for `COc1ccc(OP(C)(=O)Nc2ccccc2Br)cc1` (configuration not stated) is inactive: 1%. Regarding `COc1ccccc1OP(C)(=O)Nc1ccc(C)c(C)c1` (configuration not stated), the “activity change, negative = inhibition” value was inactive: 25.9%. Same read-out and setting: the same measure for `Cc1cc(C)cc(OP(C)(=O)Nc2cccc(C(F)(F)F)c2)c1` (configuration not stated): inactive: -1.12%.
